Experimental data published in article PMC8876276, “NanoSIMS Imaging Reveals the Impact of Ligand-ASO Conjugate Stability on ASO Subcellular Distribution” (Pharmaceutics, 2022).

Amino acid sequences for entries named in this document (tags omitted). Residues count along the entry.
UniProt P43220, 24-463, species assumed: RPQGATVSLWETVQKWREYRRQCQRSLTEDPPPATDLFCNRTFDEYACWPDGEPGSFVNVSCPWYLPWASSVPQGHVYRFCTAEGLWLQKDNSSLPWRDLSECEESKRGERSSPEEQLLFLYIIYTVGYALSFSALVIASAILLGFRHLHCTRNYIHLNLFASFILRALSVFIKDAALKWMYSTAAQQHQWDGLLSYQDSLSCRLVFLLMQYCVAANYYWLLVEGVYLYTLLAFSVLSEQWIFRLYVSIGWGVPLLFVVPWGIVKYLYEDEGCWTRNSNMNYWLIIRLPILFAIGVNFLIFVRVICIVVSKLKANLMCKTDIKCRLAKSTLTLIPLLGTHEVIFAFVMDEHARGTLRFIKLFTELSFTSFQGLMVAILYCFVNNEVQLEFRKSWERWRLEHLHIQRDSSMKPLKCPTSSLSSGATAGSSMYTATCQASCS

Target: T1, GLP1R (Homo sapiens, UniProt P43220)
T1 construct: expressed in transfected cells
Experiment: GLP1R membrane fluorescence (internalization) by confocal microscopy in GLP1R-HEK293 cells
Format: cell-based

## exenatide
5-30 min exposure
  time of initiation of GLP1R membrane fluorescence loss: ≤ 5 min
  time to plateau of GLP1R membrane fluorescence loss: 15 to 30 min
30 min incubation, 37 °C, anti-GLP1R Mab7F38, at least 10 fields, duplicate wells
  reduction of GLP1R membrane fluorescence: ~ 50%
